# Yeast mating assay 1: variants of the scFv Ab-14

Reference: Engelhart et al. 2022, doi:10.1038/s41597-022-01779-4. File: FLAb, binding data.

Binding partner: SARS-CoV-2 spike HR2 peptide, sequence PDVDLGDISGINAS.

Ab-14 is the parent antibody, in scFv form: VH, then a 15-residue (Gly4Ser)3 linker, then VL. The heavy chain is unchanged in all variants.
VH: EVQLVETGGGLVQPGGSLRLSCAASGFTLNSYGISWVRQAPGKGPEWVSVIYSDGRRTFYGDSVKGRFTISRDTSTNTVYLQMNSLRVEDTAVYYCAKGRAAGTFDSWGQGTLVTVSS
VL: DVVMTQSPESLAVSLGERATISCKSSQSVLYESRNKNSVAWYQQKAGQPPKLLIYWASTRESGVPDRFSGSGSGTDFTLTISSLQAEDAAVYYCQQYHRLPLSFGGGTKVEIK

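AAYL50 was designed without a model: most single CDR substitutions and a random sample of double and triple ones. Affinity was read by AlphaSeq, a pooled yeast mating assay with surface-displayed partners. Binding brings cells together so that they mate, and sequencing counts the barcode pairs among the diploids. A regression on co-assayed BCL2-family reference pairs converts the normalised counts of each replicate to an apparent Kd. The assay was run in three technical replicates.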

Each variant is given by its three light chain CDRs, as the data file delimits them; those of the parent are KSSQSVLYESRNKNSVA, WASTRES, QQYHRLPLS. Scale: log10 of Kd in nM, estimated from mating counts; low values are strong binders. Replicates are averaged; those with no signal do not enter the mean. Where no diploid with the target was found in that replicate, the entry reads "n.d.": below detection, most likely a poor binder, though not proof of it. For reference, the parent read 0.65 as the reference entry and 1.68 as a member of this library. Nonspecific signal, from three strains lacking the peptide, appeared in 18% of pairings of library AAYL50, centred on 4.19 (5% of these signals below 2.99); values are not corrected for it. The control count says in how many pairings with the empty strains this scFv gave a signal, with their mean in brackets.

CDR-L1	CDR-L2	CDR-L3	log10 Kd (nM) by replicate	mean log10 Kd (nM)	empty controls
KSSQSVSYESRNKNSVA	WASTRES	QEYERLPLS	1.41 1.47 1.42	1.43	5/9 (4.31)
KSSQSVLYESRQKNSVA	WASTVES	QQRHRLPLS	n.d. n.d. n.d.	n.d.	0/9
KSSQSVLYYSRNKNSVA	KASTRSS	QQYHRLPLS	2.01 1.97 2.58	2.19	5/9 (4.16)
KSSQSVLIESRNKQSVA	WASTRES	QHYHRLPLS	1.74 1.50 1.60	1.61	1/9 (3.89)
KSSSSVLYESRNKNSVA	WASTRES	QQAHRWPLS	4.72 4.00 6.19	4.97	2/9 (3.88)
KSSQSVLYESRNKNSNA	WASSRES	RQYHRLPLS	n.d. n.d. n.d.	n.d.	1/9 (4.60)
KSSQSTLYESRNKNSVA	WASTRES	QQYSRLPSS	n.d. n.d. n.d.	n.d.	4/9 (4.37)
KSSQSELYESRNKNSVA	WASTRES	QQGHRLPLS	0.77 1.01 1.03	0.93	5/9 (4.08)
TSSQSVLYESKNKNHVA	WASTRES	QQYHRLPLS	2.17 2.23 2.54	2.31	0/9
KKSQSVLYESRNKNSVA	WASSRAS	QQYHRLPLS	1.52 1.60 1.74	1.62	2/9 (3.52)
KSSQSVLYESRNKNSFA	WASTCES	QQYTRLPLS	n.d. n.d. n.d.	n.d.	1/9 (4.42)
KSSQSVEYESRNKNSVA	WASTRES	QFYHRSPLS	1.54 1.49 2.09	1.70	0/9
KSSQSVLYESQNKNSVA	WASTRES	QQYHRSCLS	4.72 n.d. 5.48	5.10	1/9 (4.12)
KSSQSYLYCSRNKNSVY	WASTRES	QQYHRLPLS	n.d. 4.94 4.38	4.66	6/9 (3.74)
KGSQSVLYMSRNKNSVA	WASTRES	RQYHRLPLS	3.54 2.54 3.26	3.11	4/9 (4.88)
KSSQIVLYESRNQNSVA	WATTRES	QQYHRLPLS	n.d. n.d. 4.80	4.80	0/9
KSSQSVLYESRNKNSRA	WASTREV	QQYHRLPDS	3.99 n.d. 5.55	4.77	2/9 (4.36)
KSSQSVLYEARNKNSVA	NASTRES	QQYHRWPLS	0.41 0.60 0.46	0.49	1/9 (5.65)
KSSQSVLYESRNKNSTA	WASTRES	QQYHVLPLS	n.d. n.d. n.d.	n.d.	1/9 (3.72)
KSSQSVLYEQRPKNSVA	WASTRES	QQYERLPLS	0.60 0.32 0.33	0.42	0/9
KSSQSCLYESRNKNSVA	WASTRES	QQYHHLWLS	2.83 3.09 2.76	2.89	3/9 (4.13)
CSSQSVLYESRNKNSVA	WESTRES	QQIHRLPLS	n.d. n.d. n.d.	n.d.	0/9
KSSQSVLYLSRNKNWVA	WHSTRES	QQYHRLPLS	n.d. n.d. n.d.	n.d.	0/9
KSSQSVLYESRNKNSVA	WASTRFS	QNYHRLPLG	n.d. 3.30 n.d.	3.30	1/9 (2.93)
KSSQSVLYESRNKNFVA	WASTRRS	QQYHRLPLF	n.d. n.d. n.d.	n.d.	1/9 (3.11)
KSSQQVLYMSRNKNSVA	WASTRES	QQYHRLGLS	2.58 2.21 2.13	2.31	4/9 (5.06)
KSSQSVLYEKRNKNSVA	YASTRES	QQYHALPLS	n.d. 1.72 n.d.	1.72	0/9
KSSTSVSYESRNCNSVA	WASTRES	QQYHRLPLS	1.03 1.21 1.33	1.19	3/9 (4.76)
KSSQSVLYESRNKNSVM	WASTRRS	QPYHRLPLS	n.d. n.d. n.d.	n.d.	0/9
KSSQSVLYESRWKNSVA	WAYTRES	QFYHRLPLS	n.d. 4.42 n.d.	4.42	1/9 (4.14)
KCSQSVTYESRNKNSVA	WASTRES	QRYHRLPLS	3.83 n.d. n.d.	3.83	2/9 (3.60)
KSSQSVLYRSRNKNSVA	WASTRIS	QKYHRLPLS	5.62 3.42 3.97	4.34	7/9 (3.97)
KSQQSVLYESRNKNSVA	WTSTRES	QGYHRLPLS	4.96 3.97 3.81	4.25	3/9 (5.09)
YSSQSVLYESRNKNSVA	QASTRES	QQYHRRPLS	1.16 1.52 1.49	1.39	0/9
KSSQSVLYESRMHNSVA	WASTRES	QQYVRLPLS	2.38 2.42 2.64	2.48	2/9 (4.10)
WSSVSVLYESRNKNSVA	WASTRES	QQLHRLPLS	3.15 n.d. n.d.	3.15	1/9 (3.81)
KSSQSVLYEQRNKNSVA	RASTREH	QQYHRLPLS	1.47 1.48 1.48	1.48	2/9 (3.80)
KASQSVLYEQRNKNSVA	WASTRES	QQYHRLHLS	0.88 1.03 0.94	0.95	3/9 (3.55)
KSQQSVLYESRIKNSVA	WASTRES	QQYHRLPLS	1.24 1.12 1.40	1.25	0/9
KSSQSVLYESRNKNNVA	WLSTRES	QQIHRLPLS	2.14 1.72 2.43	2.10	0/9
KSSQSHLYESRNKNSVA	WASTMES	QQYHRLPES	n.d. n.d. 3.87	3.87	0/9

2 of these entries, quoted again:

{"CDR-L1": "KSSQSVLYRSRNKNSVA", "CDR-L2": "WASTRIS", "CDR-L3": "QKYHRLPLS", "log10 Kd (nM) by replicate": "5.62 3.42 3.97", "mean log10 Kd (nM)": "4.34", "empty controls": "7/9 (3.97)"}
{"CDR-L1": "KSSQSHLYESRNKNSVA", "CDR-L2": "WASTMES", "CDR-L3": "QQYHRLPES", "log10 Kd (nM) by replicate": "n.d. n.d. 3.87", "mean log10 Kd (nM)": "3.87", "empty controls": "0/9"}